Yeast mating assay 2: variants of the scFv Ab-91

The measurements come from Engelhart et al. 2022 (doi:10.1038/s41597-022-01779-4) through the FLAb antibody collection.

Antigen: PDVDLGDISGINAS, a 14-residue peptide of the SARS-CoV-2 spike HR2 region.

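The starting antibody came from a phage panning campaign against this peptide. Library AAYL51 holds single substitutions and randomly drawn double and triple substitutions in the CDRs. Affinity was read by AlphaSeq, a pooled yeast mating assay with surface-displayed partners. Pairs that bind mate more often; barcode pairs of the diploids are counted by sequencing. Read counts were normalised to the haploid input and turned into Kd by a linear fit to BCL2-family pairs of known affinity, for each replicate. There are three technical replicates.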

Parent scFv Ab-91: VL joined to VH by a (GGGGS)3 linker. Changes lie in the heavy chain CDRs alone.
VL: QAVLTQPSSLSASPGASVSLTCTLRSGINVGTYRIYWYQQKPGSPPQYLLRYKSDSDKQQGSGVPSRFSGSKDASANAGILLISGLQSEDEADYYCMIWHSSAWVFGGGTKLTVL
VH: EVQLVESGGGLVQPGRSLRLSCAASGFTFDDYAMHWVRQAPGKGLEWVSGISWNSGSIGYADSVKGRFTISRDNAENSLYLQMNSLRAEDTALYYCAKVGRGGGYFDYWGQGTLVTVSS

The parent's heavy chain CDRs are GFTFDDYAMH, GISWNSGSIGYADSVK, VGRGGGYFDY; each variant's own CDRs replace them letter for letter.
The read-out is the apparent dissociation constant on a log10 scale (nM): the lower, the stronger.
A mean of the replicates is given; it leaves out those without a signal.
A pair that was not seen in any replicate is written "not detected"; this usually means weak binding, but a binder can also be missed.

CDR-H1	CDR-H2	CDR-H3	mean, log10 nM	replicates with signal
GFTFDKYAMH	GISWNSGSIGYADSMK	VGRGGGYFDH	0.41	3 of 3
GFTFDDYAMH	GISANSWSIGYADSVK	VGRGGGYFDY	1.44	3 of 3
GFTFDDYAFH	GISWSSGSIGYADSVK	VGRGGGYFDY	not detected	0 of 3
VFTHDDYKMH	GISWNSGSIGYADSVK	VGRGGGYFDY	4.27	3 of 3
GFTFVDYAMH	GISWNSGSIGYADSVM	VGRGGGYFDA	0.80	3 of 3
GFTFDDYAMH	GISWNSGSIGYGDSVK	VGRGQGYHDY	4.75	3 of 3
GFTFDDYAMP	GISLNSTSIGYADSVK	VGRGGGYFDY	5.22	2 of 3
GFTFADYAMQ	GISWNSGSIGYADSVK	VGRGGGYFDD	4.30	1 of 3
GMTFDDYAMH	GIVWNSYSIGYADSVK	VGRGGGYFDY	not detected	0 of 3
FFTFDDYAMH	GISWNSGSINYADSFK	VGRGGGYFDY	4.73	3 of 3
GFTFPDYAMH	GISWNSGSIGYADSVK	VGRCNGYFDY	4.99	1 of 3
GFTQDDYAMH	GISWNSGSIGYADSVK	VGRGGGDFHY	4.90	1 of 3
GFTQDLYAMH	GISWNSGSIGYADSVK	VGYGGGYFDY	not detected	0 of 3
RFTFDDYAMH	GISWNSQSIGYADSVK	NGRGGGYFDY	4.00	1 of 3
GFTFDDYAMH	TISWNSGSIGYHDSVK	VGRGGGYFDY	5.57	1 of 3
PFTFDDYKMH	GISWNSGSIGYADSVK	VGRGGGYFDY	not detected	0 of 3
GFTFQDYAMH	GISWNSGSIGYAESFK	VGRGGGYFDY	0.72	3 of 3
GFTFGSYAMH	GISWNSGSIGYADSVP	VGRGGGYFDY	5.57	1 of 3
GFTFDDYAMH	GISWNDGSIGYAMSVK	NGRGGGYFDY	not detected	0 of 3
GFTFDDYYMH	GISWNSGSIGYIDSVK	VGRGGSYFDY	5.46	2 of 3
GFTFDDYAMW	GISWNSGGIKYADSVK	VGRGGGYFDY	not detected	0 of 3
GFTFDDTAMH	GISWNSGSIGYADSEK	VGYGGGYFDY	not detected	0 of 3
CFTFDDYAMH	GISWNSHSIGYADSVK	VGRGGGHFDY	4.26	1 of 3
GFTFDDYAMD	GISWNSGSIGYRDSVK	VGRGGGYIDY	not detected	0 of 3
GGTFDDYAMH	GISWNKGSIGYADSVK	VNRGGGYFDY	not detected	0 of 3
GFTFSDYAMH	GISENSGSIGYADSVK	VGRGGIYFDY	not detected	0 of 3
GFTFDDYAYH	GISWNSGSIYYADSVK	VGRGGGYFDY	4.24	1 of 3
GFRFDDYAMH	GISWNSVSIGYADSVK	VGRGGGEFDY	4.75	2 of 3
GFTFDDYAMV	GISWNSGSIGYADSVK	GGRGGGYFLY	not detected	0 of 3
GFTFDDYAMH	GFSWNSGSIGYADSVK	VGRGEGYFDY	3.67	1 of 3
GFTFDDYAMG	GISWNSGSIGYASSVK	VGRGGGPFDY	4.84	3 of 3
GFTFDDYAQH	GIGWNSGSIGYAHSVK	VGRGGGYFDY	4.54	1 of 3

The remaining entries, values ahead:

mean, log10 nM	replicates with signal	CDR-H1	CDR-H2	CDR-H3
4.40	2 of 3	KFTFDDYAMH	GISWNSGSIGYADSVK	VGRGGGTFDY
not detected	0 of 3	GFTFDDYAMH	GISWNSGRIMYADSVK	VGRGGGYFDP
not detected	0 of 3	GFTFDDYAMH	GIRWNSGSVGWADSVK	VGRGGGYFDY
not detected	0 of 3	GFTFDDYDMH	AISWNSGSIGYADSVK	VGRGGGQFDY
not detected	0 of 3	GFDFDDYAMW	GIVWNSGSIGYADSVK	VGRGGGYFDY
not detected	0 of 3	GFTFDFYAMH	GIYWNSGGIGYADSVK	VGRGGGYFDY
not detected	0 of 3	GFTFDDYAMH	GISWNSGSHSYNDSVK	VGRGGGYFDY
not detected	0 of 3	GFMFDDYAMH	GISWNSGEIGYADSVK	VGRGGGYFDY
4.80	1 of 3	GFTFDDYAMH	GISWTSGSIGYADSVK	VGRGGGYIDY
5.31	2 of 3	GFTFMDYAMH	GIRKNSGSIGYADSVK	VGRGGGYFDY
4.67	1 of 3	GFQFDDYAMH	GISWNSGSIGYADSVK	VGRGLNYFDY
4.32	1 of 3	GFTFDDYAMH	WISWNSGEIGYADSVK	VGRGGGNFDY
not detected	0 of 3	GFTFDDYAMH	GISWGSGSIGYADSVF	VGRGGGWFDY
4.37	3 of 3	GFTFDDYAMH	GFSWNSGSIGYADSVN	VYRGGGYFDY
5.41	3 of 3	GFTFDDYAMH	GISWNSGSIVYADSVK	VGRTGGYDDY
not detected	0 of 3	GFTFDDYAMH	GISWNSGSIGYADSVK	LGRGGYQFDY
4.41	1 of 3	GFTHDDYAMT	GISWNSGSIGYAPSVK	VGRGGGYFDY
3.00	3 of 3	GRTIDDYAMH	GISWNSGSIGYADSVK	VGRGGGYFDY
1.47	3 of 3	GFTFDDYAMH	GISWNSGSIGYMDSVK	IGRGVGYFDY
4.11	1 of 3	GFTFDDYAMH	GISHNSGSIGYAESVK	VKRGGGYFDY
4.58	2 of 3	LFTIDDWAMH	GISWNSGSIGYADSVK	VGRGGGYFDY
not detected	0 of 3	GFLFDDYAMH	GISWNSGEIGYADSVK	FGRGGGYFDY
4.75	1 of 3	DFTFDDYAMH	GILWNSGSIGYADSVK	VGRGGGYFDY
not detected	0 of 3	GFTFDDYAEH	GISWNSGSIGQADSVK	VGRGGGYFDY
not detected	0 of 3	GFTFDDYAMH	GISWNSGFIGYADSVK	VKRAGGYFDY
not detected	0 of 3	YFTFDDYGMH	GISWNSGSIGYADSVK	VGRGGGYYDY
not detected	0 of 3	GFTFDDDAMH	GISWNSGSIGYADSTK	VGRGEGYFDY
3.79	3 of 3	GFTFDDYAMH	GISWNSGSIGYADYVT	VGHGGGYFDY
5.03	1 of 3	GFTFDDYQMH	GISWRSGQIGYADSVK	VGRGGGYFDY
4.25	2 of 3	GFTFDDYAMH	GISWNGGRIGYADSVK	VGDGGGYFDY
4.45	1 of 3	GFTPDDYAMH	GISCNSGSIGSADSVK	VGRGGGYFDY
not detected	0 of 3	GFTFDDYAMH	GISWNSGSFGYSDHVK	VGRGGGYFDY

Top 5 of the variants detected in all replicates, tightest first:

CDR-H1,CDR-H2,CDR-H3,"mean, log10 nM",replicates with signal
GFTFDKYAMH,GISWNSGSIGYADSMK,VGRGGGYFDH,0.41,3 of 3
GFTFQDYAMH,GISWNSGSIGYAESFK,VGRGGGYFDY,0.72,3 of 3
GFTFVDYAMH,GISWNSGSIGYADSVM,VGRGGGYFDA,0.80,3 of 3
GFTFDDYAMH,GISANSWSIGYADSVK,VGRGGGYFDY,1.44,3 of 3
GFTFDDYAMH,GISWNSGSIGYMDSVK,IGRGVGYFDY,1.47,3 of 3

For reference, the parent read 1.86 as the reference entry and 0.88 as a member of this library.
As a blank, each scFv also met three strains without target: over library AAYL51, 21% of these pairings were detected, typically at 4.54 and seldom below 3.26.